# Yeast mating assay B: variants of the scFv Ab-14

Antigen: PDVDLGDISGINAS, a 14-residue peptide of the SARS-CoV-2 spike HR2 region.

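Phage display of a naive human antibody library on the peptide gave the parent. This is the validation round: designs drawn from the data on random variants, tested in the same kind of assay. Group labels follow the data file (Ctrl: baseline library sampled from a position-specific scoring matrix, with some repeated check sequences; En: ensemble of fine-tuned language models; GP: Gaussian process model; HC: hill climbing; Gen: genetic algorithm; Gibbs: Gibbs sampling; a sequence that several methods proposed may carry one label only). Affinity was read by AlphaSeq, a pooled yeast mating assay with surface-displayed partners. After mating in shaken culture at 30 °C for 16 h, diploids were selected and their barcode pairs sequenced. Each replicate has its own calibration line, from reference interactions of the BCL2 family. Mating was done six times.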

Parent: Ab-14, a human scFv built as VH, the linker GGGGSGGGGSGGGGS, VL. Only the CDRs of the light chain vary.
VH: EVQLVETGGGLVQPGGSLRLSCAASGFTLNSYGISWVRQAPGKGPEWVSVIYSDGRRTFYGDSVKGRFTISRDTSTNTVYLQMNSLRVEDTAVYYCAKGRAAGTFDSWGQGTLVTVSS
VL: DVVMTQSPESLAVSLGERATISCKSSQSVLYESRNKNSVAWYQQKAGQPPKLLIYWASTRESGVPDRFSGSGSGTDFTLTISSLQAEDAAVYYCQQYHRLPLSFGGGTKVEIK

The parent's light chain CDRs are KSSQSVLYESRNKNSVA, WASTRES, QQYHRLPLS; each variant's own CDRs replace them letter for letter.
Values are log10 of the apparent Kd in nM; lower means stronger binding.
Averages over replicates are reported, and they cover detected replicates only.
A pair that was not seen in any replicate is written "nd"; this usually means weak binding, but a binder can also be missed.

CDR-L1	CDR-L2	CDR-L3	group	mean, log10 nM	seen in	empty controls
KIGATLNTLAHKQNNVA	DLVEREN	QQYFRLPLS	En_Gen	0.33	6/6	0/18
KRSQSVLTESENKNSVA	WASTRES	QQYHRLPLS	Ctrl	nd	0/6	0/18
KVSEFMRGLMQRKDSIA	DNVTRQN	QQYDRLPLS	En_Gen	0.92	6/6	1/18
KLSQSAPYEDRCFNSVA	HASQRES	QQYHRLPLS	GP_Gibbs	1.07	6/6	2/18
KLQQSWLYESRNKNSVA	NASTREV	QQYHRLPLS	GP_Gen	0.00	6/6	2/18
KSSISYLQEKRNKNSVA	EASTRES	QQYHRLPLS	GP_HC	0.23	6/6	2/18
KSSQSVLYESRNKNSVA	WASIRES	QNYHRLPLS	Ctrl	2.80	1/6	0/18
KSSQSVLYESLHKNSVA	WASTRES	QQYHRLPLS	Ctrl	nd	0/6	0/18
KSSGSVLYESFNYNSVA	WASTRES	QQYHRLPLS	Ctrl	1.66	2/6	0/18
KLSQSVLYESRNTNSVA	NASQRES	QQYHRLPLS	GP_Gen	-0.10	6/6	0/18
KISQTVLYQGRLANAVA	QMSTREN	QQYDRLPLS	En_HC	1.08	6/6	0/18
TLMHHQDYQGEIKKSIA	NAIIKER	QQYSRLPLA	En_Gibbs	0.24	6/6	0/18
KQSQSVLYESANKNSVA	DASTRES	QQYHRLPLS	GP_HC	-0.03	6/6	0/18
KSSQSVSYESRNKPSVA	WASTRES	QQYHRLPLS	Ctrl	nd	0/6	0/18
KLSQSVGYEMRNKNSVA	EAQTREQ	QQYHRLPLS	GP_Gibbs	-0.34	6/6	0/18
KIQPQLQQSFASKNNVA	DRQLSAE	QQYNRLPLV	En_Gibbs	0.02	6/6	0/18
KSSQSVKDESRNKNSVA	DASTRES	QQYHRLPLS	GP_HC	-0.10	6/6	1/18
KSSQSVLYESRNKNSVA	NASTRVS	FQPHRLPLS	Ctrl	2.58	6/6	2/18
KIQWYPLGIRGTGSAVA	EAATRYN	QQYMRLPLM	En_Gibbs	1.25	6/6	0/18
IVSQLMMWGMHAKNSIA	EAQTRLN	QQYERLPLF	En_Gen	3.02	2/6	0/18
KVEQSWLYESRNKNAVA	NASQRES	QQYHRLPLS	GP_Gen	-0.25	6/6	0/18
IISGFMLMESRNKNSVA	NAETREY	QHYDRLPLS	En_HC	2.09	5/6	0/18
KQSQSGLYESRNKNSVA	MASTRES	QQYHRLPLS	GP_HC	1.08	6/6	0/18
MISDLTMYGSRNKNSVA	DLSTRGN	QQYDRLPLS	En_HC	0.12	6/6	0/18
HISDLIMVASRNKNSVA	DENTRPD	QQYHRLPLS	En_HC	-0.18	6/6	2/18
KSSQSVLYESHNKNSVA	WASTRES	QQYNRLPLS	Ctrl	1.62	3/6	0/18
KISQSVLMESLMKNSVA	HASTRIW	QQYHRLPLS	GP_Gibbs	0.90	6/6	1/18
MISESVMYESRNRNNVA	DHSTRED	QCYDRLPLS	En_HC	-0.81	6/6	0/18
SISGFMKSLAAHSNSVA	DMTNRED	QQYDRLPLS	En_Gen	-0.07	6/6	0/18
HLKTMPGQGPQEYSSIA	HAELRTP	QQYYRLPLM	En_Gibbs	0.20	6/6	0/18
IVSQLMLWGYKHKNSIA	EAELRLN	QQYDRLPLI	En_Gen	2.16	5/6	0/18
KMTKAQYGAGSHQQNIA	ESNKISE	QSYYRLPLS	En_Gibbs	2.56	3/6	0/18
TISQMTSLFSQSINNVA	EVSCREP	QQYDRLPLA	En_Gen	2.35	4/6	1/18
KISQSVLYESRNKNSVA	WASVRES	QQYIRLPLS	Ctrl	0.30	6/6	0/18
KLQQSHLYESRNKNSVA	NASTRCS	QQYHRLPLS	GP_Gen	-0.02	6/6	0/18
KVSQSVLYESRNKQSVA	EASTRES	QQYHRLPLS	GP_Gen	-0.25	6/6	1/18
KLYEMMALTMANIRNVA	DNNTRED	QQYNRLPLS	En_Gen	1.96	6/6	0/18
NISIHGMDENSTRNHIA	DTNIRDF	QQYWHLPLS	En_Gibbs	1.07	6/6	1/18
MLTIEGDETHEKAFSIA	NVTNKEY	QQYARLPLT	En_Gibbs	1.83	5/6	1/18
HLGLATMLEEKVRNSVA	NNSTREE	QQYDRLPLS	En_Gen	0.91	6/6	2/18
KLMQSDLYESRNKNSVA	NASTRES	QQYHRLPLS	GP_Gen	-0.06	6/6	1/18
HLAQSVDLESVHKNSIA	DLMTRES	QQYHRLPLS	En_HC	1.19	6/6	0/18
KSSQSVLYESRNKNAIA	WASTRSS	QQYHRLPLS	Ctrl	nd	0/6	0/18
NMSDSQERMASILRNIA	DQTTRAM	QQYARLPLS	En_Gibbs	2.78	1/6	0/18
KSSMSVEMESRNKNNVA	DASQRES	QQYHRLPLS	GP_Gibbs	0.15	6/6	0/18
MVTQMAMSGMTNKRSVA	NANTRED	QQYHRLPLI	En_Gen	0.62	6/6	2/18
KSSQSVPMESRNKNSVA	NASTRES	QQYHRLPLS	GP_HC	0.15	6/6	2/18
KSSQSVLQDSRNKNSVA	RASTRES	QQYHRNPLS	Ctrl	nd	0/6	0/18
KLMQSVWYESRNKNSVA	EASTRES	QQYHRLPLS	GP_Gen	-0.25	6/6	0/18
MIYGADRNLGRAKNSIA	DNVTRYN	QQYERLPLS	En_Gen	2.34	3/6	1/18
TISQMWFLESKNKNNVA	EESTRED	QSYFRLPLS	En_HC	1.90	5/6	0/18
KLASVTGTEKVHGSNVA	EMETREQ	QQYNRLPLS	En_Gen	0.99	6/6	3/18
SMETLSQGMRLNWSAVA	EAHTLYQ	QYYARLPLS	En_Gibbs	nd	0/6	1/18
KSSQSVLYESRNKNSVA	WASTRES	QQPHRLPLS	Ctrl	nd	0/6	1/18
KMSPSVLYQSRNSNAVA	QASQRES	QQYHRLPLS	GP_Gibbs	-0.44	6/6	2/18
KLEQSELYESRNKNSVA	NASTRSS	QQYHRLPLS	GP_Gen	0.24	6/6	2/18
HLSQSVLQESRNKNSVA	EASQRER	QQYHRLPLS	GP_Gibbs	-0.39	6/6	0/18
KSSQSYLYESRNKNSVA	NASTRES	QQYHRLPLS	GP_Gen	-0.36	6/6	0/18
NISYEQALSTYSVNNVA	QASVRAP	QMYQRLPLV	En_Gibbs	1.88	3/6	0/18
ILSQSVLMGSHLKNSVA	QASTRFS	QQYHRLPLA	En_HC	1.10	6/6	1/18
KLGDMVHTESRNKNNIA	DMRTRES	QQYYRLPLS	En_HC	-0.12	6/6	2/18
KSPQSQLYESRNKNSVA	NASTRED	QQYHRLPLS	GP_HC	0.01	6/6	1/18

Top 10 of the variants detected in all replicates, tightest first:

CDR-L1	CDR-L2	CDR-L3	group	mean, log10 nM	seen in	empty controls
MISESVMYESRNRNNVA	DHSTRED	QCYDRLPLS	En_HC	-0.81	6/6	0/18
KMSPSVLYQSRNSNAVA	QASQRES	QQYHRLPLS	GP_Gibbs	-0.44	6/6	2/18
HLSQSVLQESRNKNSVA	EASQRER	QQYHRLPLS	GP_Gibbs	-0.39	6/6	0/18
KSSQSYLYESRNKNSVA	NASTRES	QQYHRLPLS	GP_Gen	-0.36	6/6	0/18
KLSQSVGYEMRNKNSVA	EAQTREQ	QQYHRLPLS	GP_Gibbs	-0.34	6/6	0/18
KLMQSVWYESRNKNSVA	EASTRES	QQYHRLPLS	GP_Gen	-0.25	6/6	0/18
KVSQSVLYESRNKQSVA	EASTRES	QQYHRLPLS	GP_Gen	-0.25	6/6	1/18
KVEQSWLYESRNKNAVA	NASQRES	QQYHRLPLS	GP_Gen	-0.25	6/6	0/18
HISDLIMVASRNKNSVA	DENTRPD	QQYHRLPLS	En_HC	-0.18	6/6	2/18
KLGDMVHTESRNKNNIA	DMRTRES	QQYYRLPLS	En_HC	-0.12	6/6	2/18

Background: pairings of all light chain designs with three empty control strains gave a value in 4% of cases (median 2.64, 5th percentile 1.59). Values in that range, when seen in few replicates, are hard to tell from nonspecific mating. For each scFv, signals with the empty controls are counted beside the result.
Of ten entries with the parent sequence, four were seen in most replicates (averages 0.34 to 2.37), three in one and three in none, so single entries are noisy.
The range of this assay differs from that of the first round, and the authors advise against merging the two.
The authors' rule: three or more of the six replicates give a measured affinity, fewer mean a poor binder.

Source: Li et al. 2023 (doi:10.1038/s41467-023-39022-2), MIT Lincoln Laboratory and A-Alpha Bio; data file from the FLAb repository.